In assay [1] the target is BACE 1 (beta secretase enzyme) (Homo sapiens (Human), UniProt P56817). The experiment in a line: In vitro enzymatic BACE FRET assay. The format is biochemical. Conditions: average IC50. As for the experimental part:
In Vitro Enzymatic BACE FRET (Fluorescence Resonance Energy Transfer) Assay
The assay buffer used in this screen is 0.05 M acetate, pH 4.2, 10% DMSO final, 100 uM genapol (which is a nonionic detergent, below its Critical Micelle Concentration). The beta secretase enzyme (0.2 nM) is pre-incubated for one hour with inhibitors, typically in about 1 uL of DMSO according to a serial dilution, are added thereto. This assay is effectively started by the addition of FRET substrate (50 nM) and the combination is incubated for one hour. The FRET assay is terminated with by addition of Tris buffer, which raises the pH to neutrality, and the fluorescence is determined. The FRET substrate is a peptide with commercially available fluorophore and quencher, on opposite sides of the BACE cleavage site. Proteolytic cleavage of the FRET substrate releases quenching of fluorescence (excitation […] and […]).

Protein sequences, listed by entry. Tags and fused reporters are not part of them. Residues count along the entry.
UniProt P56817, 46-501: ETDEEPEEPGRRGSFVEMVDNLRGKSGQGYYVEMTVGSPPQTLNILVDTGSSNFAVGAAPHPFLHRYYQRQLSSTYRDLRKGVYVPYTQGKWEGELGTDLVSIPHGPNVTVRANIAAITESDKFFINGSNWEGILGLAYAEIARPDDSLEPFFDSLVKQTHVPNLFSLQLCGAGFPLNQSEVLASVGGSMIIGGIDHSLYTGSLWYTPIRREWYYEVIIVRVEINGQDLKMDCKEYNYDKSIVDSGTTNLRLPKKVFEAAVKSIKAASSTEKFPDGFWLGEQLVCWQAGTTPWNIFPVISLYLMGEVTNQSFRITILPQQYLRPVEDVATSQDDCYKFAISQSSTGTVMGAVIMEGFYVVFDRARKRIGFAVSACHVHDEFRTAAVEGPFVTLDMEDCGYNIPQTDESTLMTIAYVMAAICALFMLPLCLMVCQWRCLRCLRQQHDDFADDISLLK
UniProt P07339, 65-412, species assumed: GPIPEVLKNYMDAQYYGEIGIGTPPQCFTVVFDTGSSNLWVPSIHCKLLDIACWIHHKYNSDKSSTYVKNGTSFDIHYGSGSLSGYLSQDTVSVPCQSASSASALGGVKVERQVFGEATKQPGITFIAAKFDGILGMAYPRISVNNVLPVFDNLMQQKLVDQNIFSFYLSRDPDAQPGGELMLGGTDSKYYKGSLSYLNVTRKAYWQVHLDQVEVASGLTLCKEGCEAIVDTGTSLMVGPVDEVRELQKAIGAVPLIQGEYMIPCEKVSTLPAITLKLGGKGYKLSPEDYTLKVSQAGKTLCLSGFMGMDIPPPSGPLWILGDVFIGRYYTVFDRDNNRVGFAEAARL

Assay [2] deals with Cathepsin D (Homo sapiens (Human), UniProt P07339). The assay can be described thus: In vitro enzymatic Cat D (Cathepsin D) FRET assay. It is filed as biochemical. Conditions: average IC50. On the procedure: In Vitro Enzymatic Cat D (Cathepsin D) FRET (Fluorescence Resonance Energy Transfer) Assay
Recombinant CathepsinD was expressed in CHO cells. The assay buffer for CathepsinD is 0.05 M citrate pH 3.5, 10% DMSO final, 5 mM CHAPS. […] The assays are effectively started by the addition of different FRET substrates (20 nM for CathepsinD) and the combination is incubated for one hour. The FRET assay is terminated with by addition of Tris buffer, which raises the pH to neutrality, and the fluorescence is determined. The FRET substrate is a peptide with commercially available fluorophore and quencher, on opposite sides of the BACE cleavage site. […] Proteolytic cleavage of the FRET substrate releases quenching of fluorescence (CathepsinD excitation 500 nm and emission 580 nm).

The subject of assay [3] is Aβ40 in conditioned medium of cells stably expressing Amyloid Precursor Protein (APP). The experiment in a line: In vitro BACE cell-based assay (HEK cell assay, Aβ40 sandwich ELISA). Conditions: Homo sapiens, HEK293; average IC50, Aβ40, 24 h incubation. On the procedure: In Vitro BACE Cell-Based Assay
The cell-based assay measures inhibition or reduction of Aβ40 in conditioned medium of test compound treated cells expressing amyloid precursor protein.
Cells stably expressing Amyloid Precursor Protein (APP) were plated at a density of 40K cells/well in 96 well plates (Costar). The cells were cultivated for 24 hours at 37° C. and 5% CO2 in DMEM supplemented with 10% FBS. The test compounds were then added to cells in 10-point dose response concentrations with the starting concentration being either 100 μM or 10 μM. The compounds were diluted from stock solutions in DMSO and the final DMSO concentration of the test compounds on cells was 0.1%. After 24 h of incubation with the test compounds the supernatant conditioned media was collected and the Aβ 40 levels were determined using a sandwich ELISA. The IC50 of the compound was calculated from the percent of control or percent inhibition of Aβ 40 as a function of the concentration of the test compound. […]
Cellular supernatants were incubated with the capture antibody for 3 h at 4° C., followed by 3 wash steps in TBS-tween (0.05%). […] The final readout of the ELISA is Time-Resolved Fluorescence (counts per minute) using Delfia reagents Streptavidin-Europium and Enhancement solutions (Perkin Elmer) and the Victor 2 multilabel counter (Perkin Elmer).
For orientation: ELISA stands for enzyme-linked immunosorbent assay.

SMILES strings stand for the structures.

One may read the IC50 as the concentration that gives 50% inhibition.

Consider `NC1=N[C@@]2(CCO1)c1cc(NC(=O)c3ccc(F)cn3)ccc1Oc1c(F)cc(-c3ccnc(F)c3)cc12` [Example 102, N-((4S)-2-amino-5′-fluoro-7′-(2-fluoro-4-pyridinyl)-5,6-dihydrospiro[1,3-oxazine-4,9′-xanthen]-2′-yl)-5-fluoro-2-pyridinecarboxamide], for which the figures for the half-maximal inhibitory concentration (IC50) in assay [1] and in assay [2] were 8.8 nM and 400000 nM, respectively.
Turning to `COc1cnc(C(=O)Nc2ccc3c(c2)[C@@]2(CCOC(N)=N2)c2cc(Cl)nc(F)c2O3)cn1` [Example 47, N-((5S)-2′-amino-3-chloro-1-fluoro-5′,6′-dihydrospiro[chromeno[2,3-c]pyridine-5,4′-[1,3]oxazin]-7-yl)-5-methoxy-2-pyrazinecarboxamide], the IC50 in assay [1] turned out to be 26.7 nM; in assay [3], 28 nM.
On to `COc1nc(C2=CCOCC2)cc2c1Oc1ccc(NC(=O)c3ccc(F)cn3)cc1[C@@]21CCOC(N)=N1` [Example 96, N-((5S)-2′-amino-3-(3,6-dihydro-2H-pyran-4-yl)-1-methoxy-5′,6′-dihydrospiro[chromeno[2,3-c]pyridine-5,4′-[1,3]oxazin]-7-yl)-5-fluoro-2-pyridinecarboxamide], for which the half-inhibitory concentration (IC50) worked out at 25.9 nM in assay [1] and 400000 nM in assay [2].
Regarding `COc1ccc(C(=O)Nc2ccc3c(c2)[C@@]2(CCOC(N)=N2)c2cc(-c4ccnc(F)c4)nc(F)c2O3)nc1` [Example 98, N-((5S)-2′-amino-1-fluoro-3-(2-fluoro-4-pyridinyl)-5′,6′-dihydrospiro[chromeno[2,3-c]pyridine-5,4′-[1,3]oxazin]-7-yl)-5-methoxy-2-pyridinecarboxamide], the half-inhibitory concentration (IC50) in assay [1] and in assay [3] was 1.1 nM throughout.
